# The entries are a selection whose mix differs from that of the whole data set. Activity calls are given as the source filed them. Calls come from the whole dose curve; as a rule, active = well fitted inhibition curve with a large enough effect; inconclusive = small, poorly fitted or top-dose-only effect, or effect the other way; inactive = flat fitted curve, though single readings scatter.
# The chains behind the UniProt entries cited, without tags or fusion partners.
# UniProt O75604, whole entry: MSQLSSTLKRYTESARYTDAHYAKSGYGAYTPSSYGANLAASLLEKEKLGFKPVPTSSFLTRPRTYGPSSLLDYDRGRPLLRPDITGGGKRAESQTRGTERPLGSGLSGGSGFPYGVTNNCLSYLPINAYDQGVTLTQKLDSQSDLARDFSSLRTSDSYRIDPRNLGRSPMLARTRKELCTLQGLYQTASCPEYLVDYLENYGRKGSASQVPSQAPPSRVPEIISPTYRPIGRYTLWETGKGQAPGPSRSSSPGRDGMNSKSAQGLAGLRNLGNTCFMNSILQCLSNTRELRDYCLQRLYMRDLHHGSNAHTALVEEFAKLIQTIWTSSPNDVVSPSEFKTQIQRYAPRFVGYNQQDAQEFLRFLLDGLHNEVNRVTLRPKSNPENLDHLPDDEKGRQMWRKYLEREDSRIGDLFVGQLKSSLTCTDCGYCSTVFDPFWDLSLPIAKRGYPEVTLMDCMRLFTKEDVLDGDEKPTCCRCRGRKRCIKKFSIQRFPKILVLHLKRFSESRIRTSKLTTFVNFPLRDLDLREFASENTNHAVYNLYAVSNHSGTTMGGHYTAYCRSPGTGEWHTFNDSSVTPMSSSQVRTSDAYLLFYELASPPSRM
# Target: Ubiquitin carboxyl-terminal hydrolase 2 (Homo sapiens) (UniProt O75604)
# Assay: qHTS Assay for Inhibitors of Ubiquitin-specific Protease USP2a Using CHOP2 as the Reporter;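 note: plate controls were DMSO wells for no effect and full inhibition by NEM control for full effect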
# Conditions: USP2 core, Ub-CHOP2 coupled fluorogenic reporter, 485/531; at 38.3 µM (top of the series)
# From the text: NIH Molecular Libraries Screening Centers Network [MLSCN] NIH Chemical Genomics Center [NCGC] MLSCN Grant: XO1-MH079852-01 PI Name: Nicholson, Ben. Progenra Inc, Malvern, PA NCGC Assay Overview: Homeostasis of cellular proteins is maintained through a combination of synthesis and degradation. The pathway that accounts for the majority of protein degradation is the ubiquitin-proteasomal pathway. Ubiquitin (Ub) is highly conserved in all cells and the generation of a multi-Ub chain typically targets proteins for degradation by the proteasome. However, ubiquitination is highly reversible and dynamic. […] Thus, this coupled assay gives a fluorescent read-out at excitation/emission wavelengths of 485/531. […]
# NCGC Assay Protocol Summary: The assay buffer, prepared fresh at the day of the assay, contains 20mM Tris-HCl pH 8.0, 2mM CaCl2, 2mM beta-Mercaptoethanol, 0.05% CHAPS. […] Plates were read after 60min RT incubation on a ViewLux (Perkin Elmer) plate reader using the following wavelengths Ex 485nm /Em 531nm. […] Concentration-response curves were fitted to the normalized data and the concentration-response curves were then classified based on curve quality (r2), response magnitude and degree of measured activity. The time zero reading was used to flag fluorescence artifacts. […]
row,Structure (SMILES),"activity change, negative = inhibition"
1,CCC(=O)N(c1ccccc1)C1(COC)CCN(CCn2nnn(CC)c2=O)CC1,inactive: 2.21%
2,CCC(=O)N(c1ccccc1)C1(COC)CCN(CCc2cccs2)CC1,inactive: -2.08%
